Laboratory results reported in ChEMBL document CHEMBL4371059 (J Med Chem, 2019).

Columns and labels:
[1] = molecular target: Mu-type opioid receptor (Cavia porcellus, UniProt P97266); assay: Displacement of [3H]DAMGO from MOR in guinea pig brain membranes at 1 uM after 120 mins by scintillation counting method relative to control; details: 2 h
[2] = molecular target: Kappa-type opioid receptor (Homo sapiens, UniProt P41145); assay: Agonist activity at Tango-KOR (unknown origin) expressed in HTLA cells harboring TEV-fused-beta-arrestin 2 assessed as increase in beta arrestin 2 recruitment after overnight incubation by BrightGlo reagent based assay
[3] = system: T-cell; assay: Inhibition of PMA/ionomycin-stimulated OPRK-deficient mouse T cells activation assessed as CD69-positive cells at 5 ug/ml treated for 48 hrs starting from 12 hrs post PMA/ionomycin stimulation by flow cytometry (reference value: 45.1%); set-up: scale not given: the % may be the effect or the level left
[4] = system: T-cell; assay: Inhibition of PMA/ionomycin-stimulated OPRK-deficient mouse T cells activation assessed as CD44-positive cells at 5 ug/ml treated for 48 hrs starting from 12 hrs post PMA/ionomycin stimulation by flow cytometry (reference value: […]); set-up: scale not given: the % may be the effect or the level left

Structure (SMILES) | inhibition (INH) [1] [%] | EC50 [2] [nM] | Activity [3] [%] | Activity [4] [%]
COC(=O)N1CCN(C(=O)Cc2ccc(Cl)c(Cl)c2)[C@@H]2[C@@H](N3CCCC3)CCC[C@@H]21 | 0 | – | – | –
CCCCN1CCN(C(=O)Cc2ccc(Cl)c(Cl)c2)[C@@H]2[C@@H](N3CCCC3)CCC[C@@H]21 (racemic) | > 50 | 33 | – | –
O=C(Cc1ccc(Cl)c(Cl)c1)N1CCN(C(=O)Cn2cc(CCCF)nn2)[C@H]2CCC[C@H](N3CCCC3)[C@H]21 | > 50 | – | – | –
O=C(Cc1ccc(Cl)c(Cl)c1)N1CCN[C@H]2CCC[C@H](N3CCCC3)[C@H]21 [listing 1 of 2 here] | – | – | 40.6 | 6.7
O=C(Cc1ccc(Cl)c(Cl)c1)N1CCN(Cc2ccc(F)cc2)[C@H]2CCC[C@H](N3CCCC3)[C@H]21 | 0 | 247 | – | –
CCN1CCN(C(=O)Cc2ccc(Cl)c(Cl)c2)[C@H]2[C@@H]1CCC[C@@H]2N1CCCC1 | > 50 | 12 | – | –
O=C(Cc1ccc(Cl)c(Cl)c1)N1CCN[C@H]2CCC[C@H](N3CCCC3)[C@H]21 [listing 2 of 2 here] | 28 | – | – | –
CN1CCN(C(=O)Cc2ccc(Cl)c(Cl)c2)[C@H]2[C@@H]1CCC[C@@H]2N1CCCC1 | 0 | 17 | – | –
O=C(Cc1ccc(Cl)c(Cl)c1)N1CCN(Cc2cn(CCF)nn2)[C@H]2CCC[C@H](N3CCCC3)[C@H]21 [listing 1 of 2 here] | – | – | 35.4 | 7.8
CCCN1CCN(C(=O)Cc2ccc(Cl)c(Cl)c2)[C@@H]2[C@@H](N3CCCC3)CCC[C@@H]21 (racemic) | > 50 | 7.9 | – | –
O=C(Cc1ccc(Cl)c(Cl)c1)N1CCN(C(=O)COCCF)[C@H]2CCC[C@H](N3CCCC3)[C@H]21 | – | 227 | – | –
CC(C)(C)OC(=O)N1CCN(C(=O)Cc2ccc(Cl)c(Cl)c2)[C@@H]2[C@@H](N3CCCC3)CCC[C@@H]21 | > 50 | 42 | – | –
O=C(Cc1ccc(Cl)c(Cl)c1)N1CCN(Cc2cn(CCF)nn2)[C@H]2CCC[C@H](N3CCCC3)[C@H]21 [listing 2 of 2 here] | > 50 | – | – | –
